Test results taken from patent publication US10092621B2 (dated 2018).

Substance: ulimorelin
- moderate AE meeting protocol-defined stopping criteria (at least 2 subjects) (healthy volunteers; 300 μg/kg q8H): infusion site irritation
- Dose limiting toxicity (healthy volunteers; SAD part of the study (600, 900, 1200 μg/kg)): not achieved
- single ascending dose at which mild heart rate slowing first manifested (healthy volunteers; healthy subjects, SAD): 0.6 mg/kg
- Cpfree at Tmax (Cmaxfree) (at 600 μg/mL (so in the source), dialysis of plasma from healthy volunteers, TQT study): 10 to 25 ng/mL
- Total Cmax (mean, healthy subjects, 30 minute IV infusion of 600 μg/kg): 7900 ng/mL
